Earlier results on two substances are cited in US5070187A, “Pharmacologically effective antagonists of arginine-vasopressin” (priority 1989, dated 1991).

Where two headings read alike, the source gives them in different places.

Data set [1] concerns the target T1, vasopressin V2 receptor (Homo sapiens, UniProt P30518).
T1 construct: evaluation in human volunteers of a potent vasopressin V2 receptor antagonist; host or cells: human volunteers (in vivo)
The following applies: Huffman et al., J. Med. Chem. 32:880-884 (1989).

For data set [2] the following is noted: in vivo.

With “[1-(1-mercaptocyclohexaneacetic acid),2-(0-ethyl-D-tyrosine),4-valine,9-desglycine]-8-arginine vasopressin”, the “V2 behaviour in human volunteers, in words” value in data set [1] is recorded as “behaved as a V2 agonist rather than a V2 antagonist”; in data set [1] (listed as [1-(1-mercaptocyclohexaneacetic acid)-2-(O-ethyl-D-tyrosine), 4-valine, -desglyc) it was “behaved as a V2 agonist rather than V2 antagonist”.
As to [8-arginine]-vasopressin, the “half-life of circulating vasopressin” value in data set [2] is “approximately 20 minutes”.
